Bounds are passed on as bounds.

Chains of the proteins cited; added tags and fusions are not shown.
UniProt P35222, whole entry: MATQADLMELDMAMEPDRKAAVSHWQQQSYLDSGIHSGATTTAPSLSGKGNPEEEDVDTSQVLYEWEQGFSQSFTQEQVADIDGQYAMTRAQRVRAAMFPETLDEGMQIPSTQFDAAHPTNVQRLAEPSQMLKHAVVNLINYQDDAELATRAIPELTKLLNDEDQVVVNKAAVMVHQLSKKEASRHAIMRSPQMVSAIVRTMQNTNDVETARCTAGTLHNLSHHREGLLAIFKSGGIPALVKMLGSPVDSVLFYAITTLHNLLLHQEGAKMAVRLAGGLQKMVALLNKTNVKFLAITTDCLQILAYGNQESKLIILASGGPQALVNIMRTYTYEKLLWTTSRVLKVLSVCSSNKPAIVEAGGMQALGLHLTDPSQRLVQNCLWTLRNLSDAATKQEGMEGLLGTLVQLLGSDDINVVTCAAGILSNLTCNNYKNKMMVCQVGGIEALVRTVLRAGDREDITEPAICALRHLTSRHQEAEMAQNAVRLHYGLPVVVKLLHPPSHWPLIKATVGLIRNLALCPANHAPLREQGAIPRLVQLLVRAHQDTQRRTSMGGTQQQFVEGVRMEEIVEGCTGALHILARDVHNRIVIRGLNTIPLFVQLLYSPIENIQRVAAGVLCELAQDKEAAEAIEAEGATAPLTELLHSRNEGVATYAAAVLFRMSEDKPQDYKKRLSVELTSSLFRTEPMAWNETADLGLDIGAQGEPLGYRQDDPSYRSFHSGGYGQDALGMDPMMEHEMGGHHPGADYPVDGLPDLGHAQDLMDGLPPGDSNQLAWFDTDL

The target of assay [1] is beta-catenin/TCF4 interaction (Homo sapiens, UniProt P35222). As to the kind of experiment: cell-based. Also on record: host or cells: HEK293. As to conditions: NanoBRET Abs IC50 (uM).
The target of assay [2] is T1, full-length B-Catenin (Uniprot ID P35222) (Homo sapiens, UniProt P35222).
T1 construct: 10 nM full-length B-Catenin (Uniprot ID P35222)
In words: biochemical. In kind it is binding. The conditions noted are these: beta-Catenin FP IC50 (nM), competition fluorescence polarization. For orientation: Polarisation of emitted light reports the rotation of a fluorescent probe.

By IC50 is commonly meant the concentration that gives 50% inhibition. Read a low IC50 as higher potency. As to `CC(=O)N1CCC[C@]12CC=CCCCC1(CCCC=CCCCOC(=O)N3CC[C@@]4(C3)NC(=O)[C@H](CCCCNC(=O)C[C@@H](C(N)=O)NC(=O)[C@H](Cc3csc5ccccc35)NC(=O)[C@H](Cc3ccccc3C(F)(F)F)NC4=O)NC(=O)[C@H](Cc3ccccc3)NC(=O)[C@H](C)NC(=O)[C@H](C)NC(=O)[C@H](Cc3cccc(C(=O)O)c3)NC(=O)[C@H](CC(=O)O)NC1=O)NC(=O)[C@H](CC(C)(C)C)NC(=O)[C@H](CC(=O)O)NC2=O` (relative stereo) [I-56, Ac-PL3-Asp-Npg-B5-Asp-3COOHF-Ala-Ala-Phe-Lys*3-PyrS2-2F3MeF-BztA-AsnR*3-NH2], the IC50 in assay [1] was 3 to 10 µM; in assay [2], under 50 nM.

As to `CC(=O)N1CCC[C@]12CC=CCCCC1(CCCC=CCCCOC(=O)N3CC[C@@]4(C3)NC(=O)[C@H](CCCCNC(=O)CC[C@@H](C(=O)N[C@@H](C)C(N)=O)NC(=O)[C@H](Cc3csc5ccccc35)NC(=O)[C@H](Cc3ccccc3C(F)(F)F)NC4=O)NC(=O)[C@H](Cc3ccccc3)NC(=O)[C@H](C)NC(=O)[C@H](C)NC(=O)[C@H](Cc3cccc(C(=O)O)c3)NC(=O)[C@H](CC(=O)O)NC1=O)NC(=O)[C@H](CC(C)(C)C)NC(=O)[C@H](CC(=O)O)NC2=O` (relative stereo) [I-57, Ac-PL3-Asp-Npg-B5-Asp-3COOHF-Ala-Ala-Phe-Lys*3-PyrS2-2F3MeF-BztA-GlnR*3-Ala-NH2], the concentration for half-maximal inhibition (IC50) in assay [1] was 1.5 to 3 µM; in assay [2], under 50 nM.

`CC(=O)N1CCC[C@]12CC=CCCCC1(CCCC=CCCCOC(=O)N3CC[C@@]4(C3)NC(=O)[C@H](CCCCNC(=O)CC[C@@H](C(=O)N[C@@H](C)C(N)=O)NC(=O)[C@H](Cc3csc5ccccc35)NC(=O)[C@H](Cc3ccccc3C(F)(F)F)NC4=O)NC(=O)[C@H](Cc3ccccc3)NC(=O)[C@H](C)NC(=O)[C@H](CCC(N)=O)NC(=O)[C@H](Cc3cccc(C(=O)O)c3)NC(=O)[C@H](CC(=O)O)NC1=O)NC(=O)[C@H](CC(C)(C)C)NC(=O)[C@H](CC(=O)O)NC2=O` (relative stereo) [I-60, Ac-PL3-Asp-Npg-B5-Asp-3COOHF-Gln-Ala-Phe-Lys*3-PyrS2-2F3MeF-BztA-GlnR*3-Ala-NH2]: the concentration for half-maximal inhibition (IC50) in assay [1] is 3 to 10 µM; in assay [2], under 50 nM.

Take `CC(=O)N1CCC[C@]12CC=CCCCC1(CCCC=CCCCOC(=O)N3CC[C@@]4(C3)NC(=O)[C@H](CCCCNC(=O)C[C@@H](C(=O)N[C@@H](C)C(N)=O)NC(=O)[C@H](Cc3csc5ccccc35)NC(=O)[C@H](Cc3ccccc3C(F)(F)F)NC4=O)NC(=O)[C@H](Cc3ccccc3)NC(=O)[C@H](C)NC(=O)[C@H](CCC(N)=O)NC(=O)[C@H](Cc3cccc(C(=O)O)c3)NC(=O)[C@H](CC(=O)O)NC1=O)NC(=O)[C@H](CC(C)(C)C)NC(=O)[C@H](CC(=O)O)NC2=O` (relative stereo) [I-61, Ac-PL3-Asp-Npg-B5-Asp-3COOHF-Gln-Ala-Phe-Lys*3-PyrS2-2F3MeF-BztA-AsnR*3-Ala-NH2]: the IC50 in assay [1] is over 10 µM; in assay [2], under 50 nM.

Turning to `CCCC[C@@H]1NC(=O)[C@H](Cc2cccc(C(=O)O)c2)NC(=O)[C@H](CC(=O)O)NC(=O)C2(CCCC=CCCCOC(=O)N3CC[C@@]4(C3)NC(=O)[C@H](CCCCNC(=O)CC[C@@H](C(=O)N[C@@H](C)C(N)=O)NC(=O)[C@H](Cc3csc5ccccc35)NC(=O)[C@H](Cc3ccsc3)NC4=O)NC(=O)[C@H](Cc3ccccc3)NC(=O)[C@H](C)NC1=O)CCCC=CC[C@]1(CCCN1C(C)=O)C(=O)N[C@@H](CC(=O)O)C(=O)N[C@@H](CC(C)(C)C)C(=O)N2` (relative stereo) [I-70, Ac-PL3-Asp-Npg-B5-Asp-3COOHF-nLeu-Ala-Phe-Lys*3-PyrS2-3Thi-BztA-GlnR*3-Ala-NH2], the IC50 in assay [1] was under 1.5 µM; in assay [2] it was under 50 nM.

For the compound `CCCC[C@@H]1NC(=O)[C@H](Cc2cccc(C(=O)O)c2)NC(=O)[C@H](CC(=O)O)NC(=O)C2(CCCC=CCCCOC(=O)N3CC[C@@]4(C3)NC(=O)[C@H](CCCCNC(=O)CC[C@@H](C(=O)N[C@@H](C)C(N)=O)NC(=O)[C@H](Cc3csc5ccccc35)NC(=O)[C@H](Cc3ccccc3C(F)(F)F)NC4=O)NC(=O)[C@H](Cc3ccccc3)NC(=O)[C@H](C)NC1=O)CCCC=CC[C@]1(CCCN1C(C)=O)C(=O)N[C@@H](CC(=O)O)C(=O)N[C@@H](CC(C)(C)C)C(=O)N2` (relative stereo) [I-71, Ac-PL3-Asp-Npg-B5-Asp-3COOHF-nLeu-Ala-Phe-Lys*3-PyrS2-2F3MeF-BztA-GlnR*3-Ala-NH2], the half-inhibitory concentration (IC50) in assay [1] was 1.5 to 3 µM; in assay [2], under 50 nM.

On to `CC(=O)N1CCC[C@]12CC=CCCCC1(CCCC=CCCCOC(=O)N3CC[C@@]4(C3)NC(=O)[C@H](CCCCNC(=O)CC[C@@H](C(=O)N[C@@H](C)C(N)=O)NC(=O)[C@H](Cc3csc5ccccc35)NC(=O)[C@H](Cc3ccsc3)NC4=O)NC(=O)[C@H](Cc3ccccc3)NC(=O)[C@H](C)NC(=O)[C@H]([C@@H](C)O)NC(=O)[C@H](Cc3cccc(C(=O)O)c3)NC(=O)[C@H](CC(=O)O)NC1=O)NC(=O)[C@H](CC(C)(C)C)NC(=O)[C@H](CC(=O)O)NC2=O` (relative stereo) [I-72, Ac-PL3-Asp-Npg-B5-Asp-3COOHF-Thr-Ala-Phe-Lys*3-PyrS2-3Thi-BztA-GlnR*3-Ala-NH2], for which the values for the concentration for half-maximal inhibition (IC50) in assay [1] and in assay [2] were 1.5 to 3 µM and under 50 nM, respectively.

As for `CC(=O)N1CCC[C@]12CC=CCCCC1(CCCC=CCCCOC(=O)N3CC[C@@]4(C3)NC(=O)[C@H](CCCCNC(=O)CC[C@@H](C(=O)N[C@@H](C)C(N)=O)NC(=O)[C@H](Cc3csc5ccccc35)NC(=O)[C@H](Cc3ccccc3C(F)(F)F)NC4=O)NC(=O)[C@H](Cc3ccccc3)NC(=O)[C@H](C)NC(=O)[C@H]([C@@H](C)O)NC(=O)[C@H](Cc3cccc(C(=O)O)c3)NC(=O)[C@H](CC(=O)O)NC1=O)NC(=O)[C@H](CC(C)(C)C)NC(=O)[C@H](CC(=O)O)NC2=O` (relative stereo) [I-73, Ac-PL3-Asp-Npg-B5-Asp-3COOHF-Thr-Ala-Phe-Lys*3-PyrS2-2F3MeF-BztA-GlnR*3-Ala-NH2], the IC50 in assay [1] is 1.5 to 3 µM; in assay [2] it was under 50 nM.

Consider `CC(=O)N1CCC[C@]12CCCCCCC1(CCCCCCCCOC(=O)N3CC[C@@]4(C3)NC(=O)[C@H](CCCCNC(=O)CC[C@@H](C(=O)N[C@@H](C)C(N)=O)NC(=O)[C@H](Cc3csc5ccccc35)NC(=O)[C@H](Cc3ccsc3)NC4=O)NC(=O)[C@H](Cc3ccccc3)NC(=O)[C@H](C)NC(=O)[C@H](C)NC(=O)[C@H](Cc3cccc(C(=O)O)c3)NC(=O)[C@H](CC(=O)O)NC1=O)NC(=O)[C@H](CC(C)(C)C)NC(=O)[C@H](CC(=O)O)NC2=O` (relative stereo) [I-76, Ac-PL3-Asp-Npg-B5-Asp-3COOHF-Ala-Ala-Phe-Lys*3-PyrS2-3Thi-BztA-GlnR*3-Ala-NH2], for which the IC50 in assay [1] was 3 to 10 µM; in assay [2] it was under 50 nM.

In the case of `CC(=O)N1CCC[C@]12CCCCCCC1(CCCCCCCCOC(=O)N3CC[C@@]4(C3)NC(=O)[C@H](CCCCNC(=O)CC[C@@H](C(=O)N[C@@H](C)C(N)=O)NC(=O)[C@H](Cc3csc5ccccc35)NC(=O)[C@H](Cc3ccccc3C(F)(F)F)NC4=O)NC(=O)[C@H](Cc3ccccc3)NC(=O)[C@H](C)NC(=O)[C@H](C)NC(=O)[C@H](Cc3cccc(C(=O)O)c3)NC(=O)[C@H](CC(=O)O)NC1=O)NC(=O)[C@H](CC(C)(C)C)NC(=O)[C@H](CC(=O)O)NC2=O` (relative stereo) [I-77, Ac-PL3-Asp-Npg-B5-Asp-3COOHF-Ala-Ala-Phe-Lys*3-PyrS2-2F3MeF-BztA-GlnR*3-Ala-NH2], the results for the IC50 in assay [1] and in assay [2] were over 10 µM and under 50 nM, respectively.

As for `CC(=O)N1CCC[C@]12CC=CCCCC1(CCCC=CCCCOC(=O)N3CC[C@@]4(C3)NC(=O)[C@H](CCCCNC(=O)CC[C@@H](C(=O)N[C@@H](C)C(N)=O)NC(=O)[C@H](Cc3csc5ccccc35)NC(=O)[C@H](Cc3ccsc3)NC4=O)NC(=O)[C@H](Cc3ccccc3)NC(=O)[C@H](C)NC(=O)[C@H](C)NC(=O)[C@H](Cc3cccc(C(=O)O)c3)NC(=O)[C@H](CC(=O)O)NC1=O)NC(=O)[C@H](CC(C)(C)C)NC(=O)[C@H](CC(N)=O)NC2=O` (relative stereo) [I-80, Ac-PL3-Asn-Npg-B5-Asp-3COOHF-Ala-Ala-Phe-Lys*3-PyrS2-3Thi-BztA-GlnR*3-Ala-NH2], the IC50 in assay [1] was 3 to 10 µM; in assay [2], under 50 nM.

Turning to `CC(=O)N1CCC[C@]12CC=CCCCC1(CCCC=CCCCOC(=O)N3CC[C@@]4(C3)NC(=O)[C@H](CCCCNC(=O)CC[C@@H](C(=O)N[C@@H](C)C(N)=O)NC(=O)[C@H](Cc3csc5ccccc35)NC(=O)[C@H](Cc3ccsc3)NC4=O)NC(=O)[C@H](Cc3ccccc3)NC(=O)[C@H](C)NC(=O)[C@H](C)NC(=O)[C@H](Cc3cccc(C(=O)O)c3)NC(=O)[C@H](CC(=O)O)NC1=O)NC(=O)[C@H](CC(C)(C)C)NC(=O)[C@H](CCO)NC2=O` (relative stereo) [I-81, Ac-PL3-Hse-Npg-B5-Asp-3COOHF-Ala-Ala-Phe-Lys*3-PyrS2-3Thi-BztA-GlnR*3-Ala-NH2], the half-inhibitory concentration (IC50) in assay [1] lay within 3 to 10 µM; in assay [2] it was 50 to 200 nM.

Regarding `CC(=O)N1CCC[C@]12CC=CCCCC1(CCCC=CCCCOC(=O)N3CC[C@@]4(C3)NC(=O)[C@H](CCCCNC(=O)CC[C@@H](C(=O)N[C@@H](C)C(N)=O)NC(=O)[C@H](Cc3csc5ccccc35)NC(=O)[C@H](Cc3ccsc3)NC4=O)NC(=O)[C@H](Cc3ccccc3)NC(=O)[C@H](C)NC(=O)[C@H](C)NC(=O)[C@H](Cc3cccc(C(=O)O)c3)NC(=O)[C@H](CC(N)=O)NC1=O)NC(=O)[C@H](CC(C)(C)C)NC(=O)[C@H](CC(=O)O)NC2=O` (relative stereo) [I-82, Ac-PL3-Asp-Npg-B5-Asn-3COOHF-Ala-Ala-Phe-Lys*3-PyrS2-3Thi-BztA-GlnR*3-Ala-NH2], the IC50 is 3 to 10 µM in assay [1] and under 50 nM in assay [2].

The values are drawn from patent US20240360179A1, “STAPLED PEPTIDES AND METHODS THEREOF” (FOG PHARMACEUTICALS, INC., priority 2021, published 2024).
